The data set deals with the molecule itself. Description: static light scattering; day 24 after sample preparation; 10-69 μM αBC; 20 mM sodium phosphate, 0.2 mM EDTA, 0.02% NaN3, pH 8.0; 25 °C; aggregation number from the slope of the excess Rayleigh ratio at q = 0 against concentration.

B1: Recombinant human αB-crystallin (natural protein)
chain: MDIAIHHPWIRRPFFPFHSPSRLFDQFFGEHLLESDLFPTSTSLSPFYLRPPSFLRAPSWFDTGLSEMRLEKDRFSVNLDVKHFSPEELKVKVLGDVIEVHGKHEERQDEHGFISREFHRKYRIPADVDPLTITSSLSSDGVLTVNGPRKQVSGPERTIPITREEKPAVTAAPKK
notes: αB-crystallin, human; expressed from a synthetic gene with E. coli-optimized codons in a Pet3a vector; No tag is mentioned; The introduction gives 175 residues for the protein
As for B1, the “stoichiometry N” value is 17.

In general, stoichiometry N refers to the number of molecules, sites or subunits per partner or assembly.
